Only a part is listed here, and it is no random draw. Some structures show a salt or complex split into parts, the way the source records it. Activity calls are given as the source filed them.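 The calls were made as follows: active = inhibition above the mean of all tested compounds plus 3 SD, set per screening campaign (cut at about 17% in these data); inactive = the rest.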
system: cathepsin L1 (Fasciola hepatica); test: Fasciola hepatica cathepsin L1 inhibitors, primary screen, counter-screen for PFM18AAP inhibitor project, biochemical, QFRET, fluorogenic peptide substrate (AID 1906);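 also: 0% = plate median of test compound wells and 100% = 1 µM Z-Phe-Ala-diazomethylketone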; conditions: recombinant F. hepatica cathepsin L1, Z-Leu-Arg-MCA fluorescence; at 5.96 µM; stronger effect = higher value

SMILES	inhibition
CP(=O)(Nc1ccc(Cl)cc1)Oc1ccc(F)cc1 (stereo not drawn)	inactive: -2.44%
CC(C)(C)c1ccc(OP(C)(=O)O)cc1	inactive: 0.01%
COc1ccccc1OP(C)(=O)Nc1ccccc1Br (stereo not drawn)	inactive: 0.1%
CN(C)C(=O)c1c([N+](=O)[O-])cc([N+](=O)[O-])cc1[N+](=O)[O-]	inactive: 8.31%
CCN(CC)CC(O)COC(=O)C(O)(c1ccccc1)C1CCCCC1 (stereo not drawn)	inactive: -5.84%
COc1ccc(OP(C)(=O)Nc2ccc(Br)cc2)cc1 (stereo not drawn)	inactive: 1.21%
CP(=O)(Oc1ccccc1)N1CCOC1=O (stereo not drawn)	inactive: -2.06%
CCc1ccc(OP(C)(=O)Nc2cccnc2)cc1 (stereo not drawn)	inactive: -0.88%
COc1ccccc1OP(C)(=O)Nc1c(C)n(C)n(-c2ccccc2)c1=O (stereo not drawn)	inactive: -2.49%
O=C(OCCCN1CCCC1)C(O)(c1ccccc1)C1CCCCC1 (stereo not drawn)	inactive: -4.88%
Nc1ccc2c(ccc3cccnc32)n1.O=[N+]([O-])c1cc([N+](=O)[O-])c(O)c([N+](=O)[O-])c1	inactive: 4.75%
CP(=O)(OC12CC3CC(CC(C3)C1)C2)OC12CC3CC(CC(C3)C1)C2	inactive: -0.36%
CCOC(=O)c1ccc(NP(C)(=O)Oc2ccc(Cl)cc2)cc1 (stereo not drawn)	inactive: 1.88%
Cc1nc2ccc3ccccc3c2o1.O=[N+]([O-])c1cc([N+](=O)[O-])c(O)c([N+](=O)[O-])c1	inactive: 3.48%
CP(=O)(OCCOc1ccccc1)OCCOc1ccccc1	inactive: -4.77%
CP(=O)(Nc1ccc(Cl)cc1Cl)Oc1ccccc1 (stereo not drawn)	inactive: -5.09%
Cc1cc(C)cc(OP(C)(=O)Nc2cccc(C(F)(F)F)c2)c1 (stereo not drawn)	inactive: 2.9%
COc1ccc(OP(C)(=O)Nc2ccccc2Br)cc1 (stereo not drawn)	inactive: -3.19%
COc1ccccc1OP(C)(=O)Nc1ccc(C)c(C)c1 (stereo not drawn)	inactive: 2.39%
O=[N+]([O-])c1cc([N+](=O)[O-])c(Nc2ccccn2)c([N+](=O)[O-])c1	inactive: 8.59%
Cc1c(NP(C)(=O)Oc2ccc(C(C)C)cc2)c(=O)n(-c2ccccc2)n1C (stereo not drawn)	inactive: 0.34%
CCc1ccc(OP(C)(=O)O)cc1	inactive: 0.64%

SMILES	inhibition
CP(=O)(Nc1ccccn1)Oc1ccccc1 (stereo not drawn)	inactive: -2.46%
COc1ccccc1OP(C)(=O)Nc1ccc(C)cc1C (stereo not drawn)	inactive: 1.6%
COc1ccccc1OP(C)(=O)Nc1ccc(Br)cc1 (stereo not drawn)	inactive: -1.37%
CN(C)CCOC(=O)C(O)(c1ccccc1)C1CCCC1 (stereo not drawn)	inactive: 1.56%
COc1ccc(OP(C)(=O)Nc2ccccn2)cc1 (stereo not drawn)	inactive: -2.74%
O=C(OCCN1CCN(CCOCc2ccccc2)CC1)C(O)(c1ccccc1)c1ccccc1	inactive: 1.23%
O=C(OC1CN2CCC1CC2)c1ccc([N+](=O)[O-])cc1 (stereo not drawn)	inactive: 6.49%
COc1ccc2c(c1O)-c1c(O)c(OC)cc3c1[C@H](C2)[N+](C)(C)CC3.O=[N+]([O-])c1cc([N+](=O)[O-])c([O-])c([N+](=O)[O-])c1[O-]	inactive: 0.81%
CC(C)c1ccc(OP(C)(=O)Nc2ccc(SC(F)(F)F)cc2)cc1 (stereo not drawn)	inactive: 2%
CP(=O)(Nc1ccccc1F)Oc1ccccc1 (stereo not drawn)	inactive: -2.69%
CCN(CC)CCCOC(=O)C(O)(c1ccccc1)C1CCCCC1 (stereo not drawn)	inactive: -1.03%
O=[N+]([O-])c1cc([N+](=O)[O-])c(OC2CCCCC2O)c([N+](=O)[O-])c1 (stereo not drawn)	inactive: -0.78%
CCCCCOc1ccc(NP(C)(=O)Oc2ccc(Cl)cc2Cl)cc1 (stereo not drawn)	inactive: -1.46%
CP(=O)(Nc1ccccc1)Oc1ccc(F)cc1 (stereo not drawn)	inactive: -1.03%
COc1ccc(OP(C)(=O)Nc2ccc(SC(F)(F)F)cc2)cc1 (stereo not drawn)	inactive: 6.19%
CCOC(=O)c1ccc(NP(C)(=O)Oc2ccc(F)cc2)cc1 (stereo not drawn)	inactive: -0.5%
O=[N+]([O-])c1cc([N+](=O)[O-])c(NCC2CCS(=O)(=O)C2)c([N+](=O)[O-])c1 (stereo not drawn)	inactive: 3.31%
COc1ccc(OP(C)(=O)Nc2cccc(Br)c2)cc1 (stereo not drawn)	inactive: -3.64%
COc1ccc(NP(C)(=O)Oc2ccccc2OC)cc1 (stereo not drawn)	inactive: -2.59%
CN(C)CCOC(=O)C(O)(c1ccccc1)C1CCCCC1 (stereo not drawn)	inactive: -1.54%
CP(=O)(Nc1ccc2c(c1)OCCO2)Oc1ccccc1 (stereo not drawn)	inactive: -4.23%
Cc1ccccc1NP(C)(=O)Nc1ccccc1C	inactive: -2.8%

SMILES	inhibition
CP(=O)(Nc1ccc(SC(F)(F)F)cc1)Oc1ccc(F)cc1 (stereo not drawn)	inactive: 3.1%
CCOP(C)(=S)SCC(=O)NC(C)(CC)C(=O)O (stereo not drawn)	inactive: 2.32%
O=[N+]([O-])c1cc([N+](=O)[O-])c(-c2cnn(-c3ccccc3)c2)c([N+](=O)[O-])c1	inactive: -1.73%
Cc1nc2ccc3ccccc3c2s1.O=[N+]([O-])c1cc([N+](=O)[O-])c(O)c([N+](=O)[O-])c1	inactive: 2.03%
O=[N+]([O-])c1cc([N+](=O)[O-])c(-n2nnc3ccccc32)c([N+](=O)[O-])c1	inactive: 4.21%
COc1ccccc1OP(C)(=O)Nc1c(C)cccc1C (stereo not drawn)	inactive: -2.9%
CN1CCCCC1COC(=O)C1(O)c2ccccc2CCc2ccccc21 (stereo not drawn)	inactive: -1.27%
CP(=O)(Nc1ccc(SC(F)(F)F)cc1)Oc1ccccc1 (stereo not drawn)	inactive: 0.49%
CCCOc1ccc(NP(C)(=O)Oc2ccc(Cl)cc2)cc1 (stereo not drawn)	inactive: 1.35%
O=[N+]([O-])c1cc([N+](=O)[O-])c(Nc2nnnn2CCO)c([N+](=O)[O-])c1	inactive: -0.07%
CC1=C2N=C(C=C3N=C(C(C)=C4[N-][C@@](C)([C@@H]5N=C1[C@](C)(CCC(=O)NC[C@@H](C)OP(=O)([O-])O[C@H]1[C@@H](O)[C@@H](n6cnc7cc(C)c(C)cc76)O[C@@H]1CO)[C@H]5CC(N)=O)[C@@](C)(CC(N)=O)[C@@H]4CCC(N)=O)[C@@](C)(CC(N)=O)[C@@H]3CCC(N)=O)C(C)(C)[C@@H]2CCC(N)=O.[C-]#N.[Co+3]	active: 28.7%
CCOC(=O)C(CC)C1=NC(C)(C)Cc2ccccc21.O=[N+]([O-])c1cc([N+](=O)[O-])c(O)c([N+](=O)[O-])c1 (stereo not drawn)	inactive: 1.63%
CC1=NCCc2c1[nH]c1ccccc21.O=[N+]([O-])c1cc([N+](=O)[O-])c(O)c([N+](=O)[O-])c1	inactive: 1.16%
O=C(O)c1cccc(Nc2c([N+](=O)[O-])cc([N+](=O)[O-])cc2[N+](=O)[O-])c1	inactive: 3.76%
CP(=O)(Nc1cccc(Br)c1)Oc1ccccc1 (stereo not drawn)	inactive: 5.6%
Cc1cc(C)cc(OP(C)(=O)Nc2ccccn2)c1 (stereo not drawn)	inactive: -2.98%
Cc1ccc(C)c(NP(C)(=O)Oc2ccccc2)c1 (stereo not drawn)	inactive: -2.81%
COc1ccccc1OP(C)(=O)Nc1cccc(Br)c1 (stereo not drawn)	inactive: -2.16%
Cc1cc(C)cc(OP(C)(=O)Nc2ccc(C)cc2C)c1 (stereo not drawn)	inactive: 2.89%
CCOC(=O)c1ccc(NP(C)(=O)Oc2cc(C)cc(C)c2)cc1 (stereo not drawn)	inactive: 0.16%
CCN(CC)CCCOC(=O)C(O)(c1ccccc1)c1ccccc1	inactive: -3.12%
CCOC(=O)c1ccc(NP(C)(=O)Oc2ccccc2)cc1 (stereo not drawn)	inactive: -3.13%

SMILES	inhibition
COc1ccccc1OP(C)(=O)Nc1ccc(C)cc1 (stereo not drawn)	inactive: 0.34%
Cc1ccc(NP(C)(=O)Oc2ccccc2)c(C)c1 (stereo not drawn)	inactive: 3.09%
COc1ccccc1OP(C)(=O)Nc1cc(Cl)ccc1C (stereo not drawn)	inactive: -0.86%
COc1ccc(OP(C)(=O)Nc2cccc(F)c2)cc1 (stereo not drawn)	inactive: -4.64%
Cc1cc(C)cc(OP(C)(N)=O)c1 (stereo not drawn)	inactive: -5.69%
O=[N+]([O-])c1cc([N+](=O)[O-])c(Nc2cccnc2)c([N+](=O)[O-])c1	inactive: 1.38%
CC(C)(C)c1ccc(OP(C)(=O)Nc2ccc(SC(F)(F)F)cc2)cc1 (stereo not drawn)	inactive: 2.04%
Cc1cccc(C)c1OP(C)(N)=O (stereo not drawn)	inactive: -4.06%
O=[N+]([O-])c1ccc2c(c1)C=Nc1ccccc1O2	inactive: 2.96%
CP(=S)(Nn1cnnc1)Oc1ccccc1 (stereo not drawn)	inactive: -2.09%
COc1ccccc1OP(C)(=O)Nc1ccccc1 (stereo not drawn)	inactive: 4.7%
CP(=O)(Nc1ccccc1Br)Oc1ccccc1 (stereo not drawn)	inactive: -2.69%
CCOP(C)(=S)SCC(=O)NC(C)C(=O)O (stereo not drawn)	inactive: -0.85%
CCOC(=O)c1ccc(NP(C)(=O)Oc2ccc(OC)cc2)cc1 (stereo not drawn)	inactive: 1.55%
O=[N+]([O-])c1cc([N+](=O)[O-])c(O)c([N+](=O)[O-])c1.c1ccc(Oc2ccncc2)cc1	inactive: 3.56%
CP(=O)(Nc1ccccn1)Oc1ccc(Cl)cc1 (stereo not drawn)	inactive: 5.15%
Cc1cccc(C)c1OP(C)(=O)Nc1ccc(SC(F)(F)F)cc1 (stereo not drawn)	inactive: -4.95%
CP(=O)(Nc1ccc(SC(F)(F)F)cc1)Oc1ccc(Cl)cc1 (stereo not drawn)	inactive: 1.93%
CP(=O)(Oc1ccccc1)OC(c1ccccc1)C(F)(F)F (stereo not drawn)	inactive: -1.05%
CCc1ccc(OP(C)(=O)N2CCN(c3ccc([N+](=O)[O-])cc3)CC2)cc1 (stereo not drawn)	inactive: 6.54%
CP(=O)(NC(=O)Nc1ccccc1)Oc1ccccc1 (stereo not drawn)	inactive: -1.25%
Cc1cc(C)cc(OP(C)(=O)Nc2ccc(SC(F)(F)F)cc2)c1 (stereo not drawn)	inactive: 4.14%

— PubChem BioAssay AID1906 (The Scripps Research Institute Molecular Screening Center, 2009)
